Source: ChEMBL document CHEMBL1177643, “Synthesis, DNA-binding ability and anticancer activity of benzothiazole/benzoxazole-pyrrolo[2,1-c][1,4]benzodiazepine conjugates” (Bioorg Med Chem, 2010)

System: Calf thymus DNA
Test: Binding affinity to calf thymus duplex-form DNA assessed as melting temperature at 1:5 compound/DNA ratio after 18 hrs
Assay type: nucleic-acid assay
Conditions: Bos taurus

## COc1cc2c(cc1O)N=C[C@@H]1CCCN1C2=O
  ΔTm: 0.7 °C
